These are literature values, as cited in PMC4310626 (Biochemistry, 2014).

The data set concerns the target T1, E. coli NDH-1 wild-type (Escherichia coli, UniProt P0AFD4+P33599).
T1 sequence (P33599 1-596): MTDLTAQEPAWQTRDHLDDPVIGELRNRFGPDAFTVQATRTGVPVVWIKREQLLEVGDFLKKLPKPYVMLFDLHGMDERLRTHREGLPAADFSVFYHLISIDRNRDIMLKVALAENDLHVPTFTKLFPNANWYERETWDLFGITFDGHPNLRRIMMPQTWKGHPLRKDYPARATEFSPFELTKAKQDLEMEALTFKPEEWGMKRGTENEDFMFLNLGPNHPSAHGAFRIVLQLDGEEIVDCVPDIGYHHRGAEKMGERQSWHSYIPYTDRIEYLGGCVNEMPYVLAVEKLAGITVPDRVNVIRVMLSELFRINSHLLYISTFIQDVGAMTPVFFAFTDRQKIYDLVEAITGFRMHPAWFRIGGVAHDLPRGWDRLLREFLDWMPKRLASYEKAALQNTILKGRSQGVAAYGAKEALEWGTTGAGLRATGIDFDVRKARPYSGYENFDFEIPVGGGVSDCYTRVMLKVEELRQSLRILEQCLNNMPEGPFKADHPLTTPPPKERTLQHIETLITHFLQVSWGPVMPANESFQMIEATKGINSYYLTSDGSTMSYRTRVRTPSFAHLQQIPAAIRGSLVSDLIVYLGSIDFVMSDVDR
T1 sequence (P0AFD4 1-325): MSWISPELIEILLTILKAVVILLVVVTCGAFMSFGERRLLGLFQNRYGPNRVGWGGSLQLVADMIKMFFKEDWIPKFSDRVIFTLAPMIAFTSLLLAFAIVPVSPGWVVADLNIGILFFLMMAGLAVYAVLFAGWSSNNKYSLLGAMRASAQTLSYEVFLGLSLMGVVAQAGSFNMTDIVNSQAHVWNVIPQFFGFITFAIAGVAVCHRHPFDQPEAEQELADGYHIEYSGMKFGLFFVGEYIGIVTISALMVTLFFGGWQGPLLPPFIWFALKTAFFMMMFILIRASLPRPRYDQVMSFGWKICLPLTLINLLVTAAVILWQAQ
T1 sequence (P0AFC7 1-220 partner): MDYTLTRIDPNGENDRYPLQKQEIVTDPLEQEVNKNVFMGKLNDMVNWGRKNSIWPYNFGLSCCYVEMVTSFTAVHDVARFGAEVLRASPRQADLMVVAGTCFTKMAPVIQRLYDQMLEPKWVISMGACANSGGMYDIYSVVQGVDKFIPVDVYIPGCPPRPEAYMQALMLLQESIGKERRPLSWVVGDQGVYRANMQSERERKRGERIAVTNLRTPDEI
Conditions: read-out: IC50 value, ref [16],[55]; cited from earlier work.

With asimicin, the 50% inhibitory concentration (IC50) is 2 to 10 nM.

For orientation: IC50 means the concentration needed to halve the response being measured.
